From patent publication US20150284674A1, “CAMPYLOBACTER BACTERIA AND DETECTION” (priority 2012, published 2015)

Test system: Campylobacter novel strains
Test: Antimicrobial susceptibility testing by agar dilution method (MIC);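 also: agar dilution MIC on HBA, used in place of the BSAC-recommended Iso-sensitest agar, across a panel of 14 antimicrobials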
Conditions: agar dilution on HBA; for Distribution (%) of MIC (μg/ml) 0.50: % of novel strains with MIC 0.50 μg/ml

| Substance | Distribution (%) of MIC (μg/ml) 0.25 (% of novel strains with MIC 0.25 μg/ml) | Distribution (%) of MIC (μg/ml) 0.50 |
| --- | --- | --- |
| Gentamycin | 4.35% | 95.65% |
| Polymyxin B | – | 4.35% |
